Source: PubChem BioAssay AID2057 (The Scripps Research Institute Molecular Screening Center, 2009)
The list shows a part of the results, in another mix than the full data. Activity calls are given as the source filed them.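 How the source made its calls: active means inhibition above the mean inhibition of all tested compounds plus 3 SD, set per campaign (cut at about 40% in these data); inactive means the rest.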

Amino acid sequences for entries named in this document (tags omitted).
UniProt Q07820, whole entry: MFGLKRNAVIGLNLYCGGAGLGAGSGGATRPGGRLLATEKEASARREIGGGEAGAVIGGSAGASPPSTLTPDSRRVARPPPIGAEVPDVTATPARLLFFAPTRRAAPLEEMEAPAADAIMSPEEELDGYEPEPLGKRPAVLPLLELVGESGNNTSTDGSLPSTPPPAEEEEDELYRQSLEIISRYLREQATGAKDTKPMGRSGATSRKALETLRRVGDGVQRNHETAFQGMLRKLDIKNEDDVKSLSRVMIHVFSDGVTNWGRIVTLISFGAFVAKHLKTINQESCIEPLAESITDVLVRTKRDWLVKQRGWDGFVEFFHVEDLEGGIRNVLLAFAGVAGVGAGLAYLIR

Each compound was assayed against Induced myeloid leukemia cell differentiation protein Mcl-1 (Homo sapiens) (UniProt Q07820) (assay: MCL1-BIM peptide interaction disruptors – biochemical, fluorescence polarization, primary screen (AID 2057;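 further: 0% = DMSO wells and 100% = unlabeled Bim-BH3 peptide control; higher means more loss of mP so more displacement of Bim peptide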)). Details: GST-MCL1 / FITC-Bim-BH3 fluorescence polarization; at 10.9 µM; active compounds read high.

| SMILES | inhibition |
| --- | --- |
| CC1=NCCc2c1[nH]c1ccccc21.O=[N+]([O-])c1cc([N+](=O)[O-])c(O)c([N+](=O)[O-])c1 | inactive: 5.12% |
| O=C(O)c1cccc(Nc2c([N+](=O)[O-])cc([N+](=O)[O-])cc2[N+](=O)[O-])c1 | inactive: 3.52% |
| CP(=O)(Nc1cccc(Br)c1)Oc1ccccc1 (stereo unspecified) | inactive: 3.86% |
| Cc1cc(C)cc(OP(C)(=O)Nc2ccccn2)c1 (stereo unspecified) | inactive: 1.2% |
| Cc1ccc(C)c(NP(C)(=O)Oc2ccccc2)c1 (stereo unspecified) | inactive: 3.81% |
| COc1ccccc1OP(C)(=O)Nc1cccc(Br)c1 (stereo unspecified) | inactive: -0.96% |
| Cc1cc(C)cc(OP(C)(=O)Nc2ccc(C)cc2C)c1 (stereo unspecified) | inactive: 2.32% |
| CCOC(=O)c1ccc(NP(C)(=O)Oc2cc(C)cc(C)c2)cc1 (stereo unspecified) | inactive: 3.32% |
| O=[N+]([O-])c1cc([N+](=O)[O-])c(-c2cnn(-c3ccccc3)c2)c([N+](=O)[O-])c1 | inactive: -3.75% |
| Cc1nc2ccc3ccccc3c2s1.O=[N+]([O-])c1cc([N+](=O)[O-])c(O)c([N+](=O)[O-])c1 | inactive: 4.2% |
| O=[N+]([O-])c1cc([N+](=O)[O-])c(-n2nnc3ccccc32)c([N+](=O)[O-])c1 | inactive: 1.68% |
| CN1CCCCC1COC(=O)C1(O)c2ccccc2CCc2ccccc21 (stereo unspecified) | inactive: 9.4% |
| COc1ccccc1OP(C)(=O)Nc1c(C)cccc1C (stereo unspecified) | inactive: 4.82% |
| CP(=O)(Nc1ccc(SC(F)(F)F)cc1)Oc1ccccc1 (stereo unspecified) | inactive: 0.2% |
| CCCOc1ccc(NP(C)(=O)Oc2ccc(Cl)cc2)cc1 (stereo unspecified) | inactive: -1% |
| O=[N+]([O-])c1cc([N+](=O)[O-])c(Nc2nnnn2CCO)c([N+](=O)[O-])c1 | inactive: -2.07% |
| CC1=C2N=C(C=C3N=C(C(C)=C4[N-][C@@](C)([C@@H]5N=C1[C@](C)(CCC(=O)NC[C@@H](C)OP(=O)([O-])O[C@H]1[C@@H](O)[C@@H](n6cnc7cc(C)c(C)cc76)O[C@@H]1CO)[C@H]5CC(N)=O)[C@@](C)(CC(N)=O)[C@@H]4CCC(N)=O)[C@@](C)(CC(N)=O)[C@@H]3CCC(N)=O)C(C)(C)[C@@H]2CCC(N)=O.[C-]#N.[Co+3] | inactive: 10.5% |
| CCOC(=O)C(CC)C1=NC(C)(C)Cc2ccccc21.O=[N+]([O-])c1cc([N+](=O)[O-])c(O)c([N+](=O)[O-])c1 (stereo unspecified) | inactive: 7.24% |
| CP(=S)(Nn1cnnc1)Oc1ccccc1 (stereo unspecified) | inactive: -0.68% |
| COc1ccccc1OP(C)(=O)Nc1ccccc1 (stereo unspecified) | inactive: 5.15% |
| CP(=O)(Nc1ccccc1Br)Oc1ccccc1 (stereo unspecified) | inactive: 1.49% |
